Protein sequences, listed by entry. Tags and fused reporters are not part of them.
UniProt P10275, whole entry T878A: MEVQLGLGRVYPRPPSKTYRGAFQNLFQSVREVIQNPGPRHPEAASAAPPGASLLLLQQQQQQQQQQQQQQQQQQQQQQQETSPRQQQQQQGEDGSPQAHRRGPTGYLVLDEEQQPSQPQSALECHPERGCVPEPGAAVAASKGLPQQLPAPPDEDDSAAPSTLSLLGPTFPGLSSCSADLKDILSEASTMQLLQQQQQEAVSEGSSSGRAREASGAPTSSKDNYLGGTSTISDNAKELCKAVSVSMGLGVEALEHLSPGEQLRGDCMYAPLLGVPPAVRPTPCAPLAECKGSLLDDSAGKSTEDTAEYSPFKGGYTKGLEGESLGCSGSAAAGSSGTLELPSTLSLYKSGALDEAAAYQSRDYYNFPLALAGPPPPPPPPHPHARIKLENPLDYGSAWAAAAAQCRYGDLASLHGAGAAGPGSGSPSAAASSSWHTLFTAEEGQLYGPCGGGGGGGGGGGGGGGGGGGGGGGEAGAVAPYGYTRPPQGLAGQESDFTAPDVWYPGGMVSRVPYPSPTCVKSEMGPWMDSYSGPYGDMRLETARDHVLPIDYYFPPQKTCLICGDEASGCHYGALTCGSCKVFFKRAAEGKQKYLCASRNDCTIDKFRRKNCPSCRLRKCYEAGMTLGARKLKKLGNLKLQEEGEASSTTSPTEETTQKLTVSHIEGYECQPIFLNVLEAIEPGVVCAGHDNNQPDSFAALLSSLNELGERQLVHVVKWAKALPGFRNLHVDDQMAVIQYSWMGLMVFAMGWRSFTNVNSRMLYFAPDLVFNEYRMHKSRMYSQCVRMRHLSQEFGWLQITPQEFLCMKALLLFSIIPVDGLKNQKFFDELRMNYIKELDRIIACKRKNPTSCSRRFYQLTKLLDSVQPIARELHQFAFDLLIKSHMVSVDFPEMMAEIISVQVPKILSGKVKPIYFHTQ

In patent publication US20230146829A1 (priority 2020, published 2023):

Tests used:
[1] = target: AR full length (AR FL) in LNCaP cells (Homo sapiens, UniProt P10275, T878A)
AR wildtype (wt) = AR wildtype (wt) (Homo sapiens, UniProt P10275)

Question: What does the source list for C[C@](O)(Cn1ccc2cc(F)ccc21)C(=O)Nc1cnc(C#N)c(C(F)(F)F)c1 [Compound 47]?
Answer: SARD Activity Full Length % degradation at 1 μM [1]: 57, 97%; SARD Activity Full Length % degradation at 10 μM [1]: 57, 97%

Question: Which “Wt. IC50” value (AR wildtype (wt)) does the source give for CC(C)(C)OC(=O)NCc1cnn(C[C@](C)(O)C(=O)Nc2cnc(C#N)c(C(F)(F)F)c2)c1 [Compound 1079, (S)-tert-Butyl ((1-(3-((6-cyano-5-(trifluoromethyl)pyridin-3-yl)amino)-2-hydroxy-2-methyl-3-oxopropyl)-1H-pyrazol-4-yl)methyl)carbamate] here?
Answer: The value was “No effect”.
